Apparent affinities of Ab-14 variants for a coronavirus HR2 peptide

Source: Li et al. 2023 (doi:10.1038/s41467-023-39022-2), MIT Lincoln Laboratory and A-Alpha Bio; data file from the FLAb repository.

Target: peptide PDVDLGDISGINAS, taken from heptad repeat 2 (HR2) of SARS-CoV-2 spike.

The variants keep the heavy chain, the linker and the frameworks of Ab-14 (scFv order VH, a 15-residue (Gly4Ser)3 linker, VL).
VH: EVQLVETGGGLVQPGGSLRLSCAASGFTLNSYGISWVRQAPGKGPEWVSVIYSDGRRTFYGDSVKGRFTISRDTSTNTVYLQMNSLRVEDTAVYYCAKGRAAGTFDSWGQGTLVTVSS
VL: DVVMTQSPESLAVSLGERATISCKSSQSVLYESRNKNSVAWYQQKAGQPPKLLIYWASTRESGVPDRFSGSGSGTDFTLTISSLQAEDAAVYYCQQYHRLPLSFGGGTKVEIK

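The parent was found by panning a naive human phage display library on the peptide. These sequences belong to a second round, designed from the earlier measurements on random variants of the parent. Group labels follow the data file (Ctrl: baseline library sampled from a position-specific scoring matrix, with some repeated check sequences; En: ensemble of fine-tuned language models; GP: Gaussian process model; HC: hill climbing; Gen: genetic algorithm; Gibbs: Gibbs sampling; a sequence that several methods proposed may carry one label only). AlphaSeq pools MATa yeast showing the antibodies with MATalpha yeast showing the peptide. Pairs that bind mate more often; barcode pairs of the diploids are counted by sequencing. A regression on co-assayed BCL2-family reference pairs converts the normalised counts of each replicate to an apparent Kd. Each pool was mated in six replicate cultures.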

Each variant is given by its three light chain CDRs, as the data file delimits them; those of the parent are KSSQSVLYESRNKNSVA, WASTRES, QQYHRLPLS. Values are log10 of the apparent Kd in nM; lower means stronger binding. "nd" means that the variant was in the library but no mating with the target was seen in that replicate; the authors take this as a sign of poor binding, and no number exists.

Result 0.44, 0.14, 0.46, -0.17, 0.14, 0.26, variant TVGQVHEMLSRNKNSVA | DANTRES | QQYDRLPLS [En_HC].
Result 0.99, 1.05, 0.87, 1.08, 0.72, 0.80, variant KFMYSLEYQMHEQNNIA | HGNIKTV | QQYSRLPIY [En_Gibbs].
Result 0.21, 0.13, 0.05, -0.18, -0.12, 0.27, variant KVSQSWLYESRNKWSVA | NASTRES | QQYHRLPLS [GP_Gen].
Result 0.10, -0.52, -0.13, -0.60, -0.40, 0.00, variant KSSQSVLYESRNANSVA | RASTRES | QQYHRLPLS [Ctrl].
Result 0.25, -0.16, -0.06, 0.01, 0.44, 0.43, variant KSSWSVLMESRNKNSVA | DASTRSS | QQYHRLPLS [GP_HC].
Result 0.25, 0.14, 0.04, -0.01, 0.21, 0.26, variant KLSQSELYESRMKNSVA | GASTRES | QQYHRLPLS [GP_Gen].
Result 0.37, 0.39, 0.44, 0.08, 0.27, 0.61, variant KSSGSVMMLSRNVNSVA | EATTRES | QQYHRLPLS [GP_Gibbs].
Result -0.07, -0.30, -0.34, -0.40, -0.35, 0.00, variant KISQSFLYESRNKNSVA | GASTRES | QAYHRLPLS [GP_HC].
Result 0.35, 0.01, 0.28, -0.12, 0.40, 0.88, variant KLSQSTLYESRNQNSVA | WASTRES | QQYHRLPLS [GP_HC].
Result -0.33, -0.09, -0.35, -0.38, -0.06, 0.04, variant KLSQSDLYESRNKNSVA | GASYRES | QQYHRLPLS [GP_Gen].
Result nd, 1.73, 2.33, nd, 1.14, 2.03, variant KLREVQHVETKSKNNVA | DNDTREY | QDYYRLPLS [En_HC].
Result 0.63, 0.45, 0.37, 0.06, 0.40, 0.51, variant KLSWSDLYESRNCNNVA | NASQREV | QQYHRLPLS [GP_Gibbs].
Result -0.08, -0.15, -0.44, -0.48, -0.46, -0.29, variant KLSQSVLYESRMKNSVA | NASTREM | QQYHRLPLS [GP_Gen].
Result 0.52, 0.51, 0.51, 0.82, 0.40, 0.84, variant KLTMITGLEKVSKNNVA | EMETRER | QQYNRLPLA [En_Gen].
Result nd, nd, nd, nd, nd, nd, variant KSSQSVYYESRNKNSVA | WASERES | QQYHRLPLS [Ctrl].
Result nd, nd, nd, nd, nd, nd, variant KSSQSVLYESRNKNSVA | GASERES | QQPHRLPLS [Ctrl].
Result 0.72, 0.42, 0.75, 1.26, 1.02, 0.22, variant KLSQVTHSVSRNKNSIA | EMVTREV | QQYDRLPLS [En_HC].
Result 2.20, nd, nd, nd, nd, nd, variant KSSQSVLLEFRNKNSVA | WASTRVS | QQYHRLPLS [Ctrl].
Result nd, nd, nd, nd, 2.42, 2.89, variant HLAVNMTYLDSSKYHVA | NASDREP | QYYNRLPLS [En_Gibbs].
Result -0.38, -0.55, -0.64, -0.72, -0.66, -0.60, variant KLSQSWLYESRNKNNVA | NASQRES | QDYHRLPLS [GP_Gen].
Result 1.18, 0.56, 0.57, 0.80, 1.32, 0.81, variant HLSLRLSYGNMLQNAVA | GVQARMT | QQYARLPLL [En_Gibbs].
Result nd, nd, nd, nd, 1.32, nd, variant KQSQSVGYESRNKNSVA | MASTRES | QQYHRLPLS [GP_HC].
Result 1.04, 0.39, 0.68, 1.00, 1.51, 0.57, variant KVSLSVLLWSRNANAVA | EASTRES | QQYHRLPLS [GP_Gibbs].
Result 1.79, 2.06, 1.72, 2.19, 1.87, 3.15, variant KSSQSVRYESRNKNSVA | NASTRLS | QQYHRLPLS [Ctrl].
Result nd, nd, nd, nd, nd, nd, variant MSSQSVLYESREKNSVA | QASTRES | QQYHRLNLA [Ctrl].
Result 1.41, 0.98, 0.76, 0.82, 0.89, 0.79, variant MMSQVTGMGQRHRNNVA | QTSTREP | QQYDHLPLI [En_Gen].
Result -0.13, -0.18, -0.42, -0.37, -0.11, -0.09, variant KLRQSVLYESRNKNSVA | HASTRED | QQYHRLPLS [GP_HC].
Result 1.40, 1.58, 1.10, 1.35, 2.16, 2.35, variant KLMYLVLYESRNKNSVA | NASTREQ | QQYHRLPLS [GP_Gibbs].
Result 0.13, 0.11, -0.31, -0.29, -0.45, 0.08, variant KFKPSFLYWSRNSNAVA | EASTREE | QQYHRLPLS [GP_Gibbs].
Result 0.93, 0.57, 1.04, 0.31, 0.18, 1.91, variant KSSQSVLYESCAKNSVA | WASTRES | QQYHRLPLS [Ctrl].
Result 2.59, 2.75, nd, 2.67, 2.05, 2.74, variant KSSQSVLTESRNKNSVA | WASTRES | QQYHRLPLE [Ctrl].
Result 0.73, 0.83, 0.75, 0.69, 2.20, 1.57, variant KSSNSYLYESRNTNSVA | EASTRES | QQYHRLPLS [GP_HC].
Result nd, 0.74, 2.08, 1.76, 0.74, nd, variant KVGNMVDYMSATHSSVA | QTSTREE | QQYHRLPLS [En_HC].
Result nd, nd, nd, nd, nd, nd, variant KSSQSVLYESRNKNSVA | WRSERES | QQYHWLPLS [Ctrl].
Result 0.96, 0.22, 0.65, 0.29, -0.27, 0.16, variant ALSQSMDMTSRNGNSVA | DLTTRGN | QQYHRLPLS [En_HC].

Extract of 4 entries:

With KLREVQHVETKSKNNVA | DNDTREY | QDYYRLPLS [En_HC] the result was nd, 1.73, 2.33, nd, 1.14, 2.03.
With KSSQSVLLEFRNKNSVA | WASTRVS | QQYHRLPLS [Ctrl] the result was 2.20, nd, nd, nd, nd, nd.
With ALSQSMDMTSRNGNSVA | DLTTRGN | QQYHRLPLS [En_HC] the result was 0.96, 0.22, 0.65, 0.29, -0.27, 0.16.
With KVSQSWLYESRNKWSVA | NASTRES | QQYHRLPLS [GP_Gen] the result was 0.21, 0.13, 0.05, -0.18, -0.12, 0.27.

Of ten entries with the parent sequence, four were seen in most replicates (averages 0.34 to 2.37), three in one and three in none, so single entries are noisy. The authors' rule: three or more of the six replicates give a measured affinity, fewer mean a poor binder. The range of this assay differs from that of the first round, and the authors advise against merging the two. Three control strains display no target. For all light chain designs, 4% of the pairings with them gave a signal, with a median of 2.64 and one signal in twenty below 1.59, so weak values seen in few replicates may be background.